Results as given in US20250236611A1, “PYRAZOLE COMPOUNDS AND USES THEREOF” (ALCON INC., priority 2021, published 2025).

Chains of the proteins cited; added tags and fusions are not shown.
UniProt P23458, whole entry: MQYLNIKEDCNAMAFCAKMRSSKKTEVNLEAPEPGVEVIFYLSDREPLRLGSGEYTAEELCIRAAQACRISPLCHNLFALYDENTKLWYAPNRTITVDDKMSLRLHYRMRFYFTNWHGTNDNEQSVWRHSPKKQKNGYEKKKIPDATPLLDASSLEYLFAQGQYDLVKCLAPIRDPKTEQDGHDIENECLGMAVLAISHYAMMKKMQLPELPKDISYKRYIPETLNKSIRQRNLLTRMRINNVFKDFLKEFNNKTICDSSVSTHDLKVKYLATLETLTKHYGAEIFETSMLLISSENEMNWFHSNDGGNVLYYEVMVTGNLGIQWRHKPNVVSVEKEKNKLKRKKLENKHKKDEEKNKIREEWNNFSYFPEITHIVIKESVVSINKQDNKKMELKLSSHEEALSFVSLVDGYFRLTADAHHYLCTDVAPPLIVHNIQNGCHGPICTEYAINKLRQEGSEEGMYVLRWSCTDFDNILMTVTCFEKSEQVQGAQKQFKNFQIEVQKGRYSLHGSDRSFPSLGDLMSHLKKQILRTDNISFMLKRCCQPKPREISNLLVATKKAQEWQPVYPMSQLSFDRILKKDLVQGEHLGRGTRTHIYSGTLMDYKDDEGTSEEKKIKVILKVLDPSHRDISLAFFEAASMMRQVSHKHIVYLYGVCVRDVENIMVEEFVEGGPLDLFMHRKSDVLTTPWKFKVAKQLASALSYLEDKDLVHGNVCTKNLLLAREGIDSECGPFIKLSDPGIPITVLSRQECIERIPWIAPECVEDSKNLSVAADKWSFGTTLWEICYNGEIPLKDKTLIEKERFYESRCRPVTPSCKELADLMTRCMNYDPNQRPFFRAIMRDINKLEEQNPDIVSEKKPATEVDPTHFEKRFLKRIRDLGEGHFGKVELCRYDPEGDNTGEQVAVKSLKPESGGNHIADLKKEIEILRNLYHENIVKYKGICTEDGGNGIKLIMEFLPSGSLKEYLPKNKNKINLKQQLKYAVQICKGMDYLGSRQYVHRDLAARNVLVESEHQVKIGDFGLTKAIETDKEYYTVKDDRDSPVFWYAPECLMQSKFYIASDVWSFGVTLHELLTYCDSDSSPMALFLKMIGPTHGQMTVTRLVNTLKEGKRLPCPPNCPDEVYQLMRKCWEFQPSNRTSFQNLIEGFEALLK
UniProt P52333, whole entry: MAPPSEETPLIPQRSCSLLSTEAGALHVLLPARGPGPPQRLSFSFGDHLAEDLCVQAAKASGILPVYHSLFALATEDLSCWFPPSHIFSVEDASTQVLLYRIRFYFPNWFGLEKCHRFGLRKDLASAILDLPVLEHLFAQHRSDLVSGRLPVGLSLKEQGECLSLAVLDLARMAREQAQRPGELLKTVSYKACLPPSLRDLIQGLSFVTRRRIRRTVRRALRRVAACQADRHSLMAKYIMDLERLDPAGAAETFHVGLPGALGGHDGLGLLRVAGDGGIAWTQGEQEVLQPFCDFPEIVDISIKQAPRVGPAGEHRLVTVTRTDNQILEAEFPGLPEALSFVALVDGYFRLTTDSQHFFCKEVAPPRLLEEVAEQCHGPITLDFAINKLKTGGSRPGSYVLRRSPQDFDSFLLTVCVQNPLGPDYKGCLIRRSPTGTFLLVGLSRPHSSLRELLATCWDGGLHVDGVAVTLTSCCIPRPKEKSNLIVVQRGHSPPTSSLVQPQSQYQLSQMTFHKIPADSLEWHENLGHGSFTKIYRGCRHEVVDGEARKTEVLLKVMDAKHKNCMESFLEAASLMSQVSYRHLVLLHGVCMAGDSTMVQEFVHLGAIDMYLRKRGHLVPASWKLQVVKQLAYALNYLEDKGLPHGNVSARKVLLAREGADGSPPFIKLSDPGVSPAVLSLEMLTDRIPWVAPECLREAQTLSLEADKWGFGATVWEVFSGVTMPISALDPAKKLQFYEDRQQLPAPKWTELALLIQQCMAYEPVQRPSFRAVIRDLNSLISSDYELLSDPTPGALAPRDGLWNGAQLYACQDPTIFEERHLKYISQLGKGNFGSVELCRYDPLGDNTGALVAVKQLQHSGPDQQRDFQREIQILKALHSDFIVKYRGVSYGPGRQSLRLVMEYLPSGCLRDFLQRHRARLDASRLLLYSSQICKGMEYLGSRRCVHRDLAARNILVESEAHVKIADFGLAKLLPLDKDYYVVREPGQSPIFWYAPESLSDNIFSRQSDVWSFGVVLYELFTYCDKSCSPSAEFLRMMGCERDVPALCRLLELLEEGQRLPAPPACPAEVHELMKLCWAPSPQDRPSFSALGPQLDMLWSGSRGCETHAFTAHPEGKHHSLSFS
UniProt O60674, whole entry: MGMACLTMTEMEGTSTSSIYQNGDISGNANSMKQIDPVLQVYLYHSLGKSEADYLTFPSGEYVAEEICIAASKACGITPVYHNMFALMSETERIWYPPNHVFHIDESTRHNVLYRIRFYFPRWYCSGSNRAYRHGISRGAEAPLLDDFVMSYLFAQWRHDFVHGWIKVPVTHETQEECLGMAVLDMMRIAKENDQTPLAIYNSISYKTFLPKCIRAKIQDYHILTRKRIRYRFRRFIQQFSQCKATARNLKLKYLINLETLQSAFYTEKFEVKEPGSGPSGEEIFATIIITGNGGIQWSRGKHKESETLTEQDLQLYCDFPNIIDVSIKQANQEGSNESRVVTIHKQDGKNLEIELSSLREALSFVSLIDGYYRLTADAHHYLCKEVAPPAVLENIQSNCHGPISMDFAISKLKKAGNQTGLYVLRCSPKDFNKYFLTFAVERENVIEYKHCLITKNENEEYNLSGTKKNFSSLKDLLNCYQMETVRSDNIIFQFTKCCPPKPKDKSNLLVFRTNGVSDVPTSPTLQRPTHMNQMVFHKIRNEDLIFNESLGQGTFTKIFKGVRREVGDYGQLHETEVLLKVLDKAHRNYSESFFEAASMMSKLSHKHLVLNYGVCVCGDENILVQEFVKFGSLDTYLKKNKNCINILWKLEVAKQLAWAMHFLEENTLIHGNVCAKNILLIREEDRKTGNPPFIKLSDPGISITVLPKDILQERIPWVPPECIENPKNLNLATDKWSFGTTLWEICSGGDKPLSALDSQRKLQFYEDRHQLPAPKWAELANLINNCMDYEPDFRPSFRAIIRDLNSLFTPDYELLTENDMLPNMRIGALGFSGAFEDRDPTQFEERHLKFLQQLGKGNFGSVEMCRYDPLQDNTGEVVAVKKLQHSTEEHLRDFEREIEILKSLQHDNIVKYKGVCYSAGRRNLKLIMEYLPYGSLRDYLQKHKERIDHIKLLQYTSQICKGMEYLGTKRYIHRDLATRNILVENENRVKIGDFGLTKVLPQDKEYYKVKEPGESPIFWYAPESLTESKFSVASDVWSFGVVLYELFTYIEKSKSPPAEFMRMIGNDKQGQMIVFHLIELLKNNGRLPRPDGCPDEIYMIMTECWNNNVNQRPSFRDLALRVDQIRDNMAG
UniProt P29597, whole entry: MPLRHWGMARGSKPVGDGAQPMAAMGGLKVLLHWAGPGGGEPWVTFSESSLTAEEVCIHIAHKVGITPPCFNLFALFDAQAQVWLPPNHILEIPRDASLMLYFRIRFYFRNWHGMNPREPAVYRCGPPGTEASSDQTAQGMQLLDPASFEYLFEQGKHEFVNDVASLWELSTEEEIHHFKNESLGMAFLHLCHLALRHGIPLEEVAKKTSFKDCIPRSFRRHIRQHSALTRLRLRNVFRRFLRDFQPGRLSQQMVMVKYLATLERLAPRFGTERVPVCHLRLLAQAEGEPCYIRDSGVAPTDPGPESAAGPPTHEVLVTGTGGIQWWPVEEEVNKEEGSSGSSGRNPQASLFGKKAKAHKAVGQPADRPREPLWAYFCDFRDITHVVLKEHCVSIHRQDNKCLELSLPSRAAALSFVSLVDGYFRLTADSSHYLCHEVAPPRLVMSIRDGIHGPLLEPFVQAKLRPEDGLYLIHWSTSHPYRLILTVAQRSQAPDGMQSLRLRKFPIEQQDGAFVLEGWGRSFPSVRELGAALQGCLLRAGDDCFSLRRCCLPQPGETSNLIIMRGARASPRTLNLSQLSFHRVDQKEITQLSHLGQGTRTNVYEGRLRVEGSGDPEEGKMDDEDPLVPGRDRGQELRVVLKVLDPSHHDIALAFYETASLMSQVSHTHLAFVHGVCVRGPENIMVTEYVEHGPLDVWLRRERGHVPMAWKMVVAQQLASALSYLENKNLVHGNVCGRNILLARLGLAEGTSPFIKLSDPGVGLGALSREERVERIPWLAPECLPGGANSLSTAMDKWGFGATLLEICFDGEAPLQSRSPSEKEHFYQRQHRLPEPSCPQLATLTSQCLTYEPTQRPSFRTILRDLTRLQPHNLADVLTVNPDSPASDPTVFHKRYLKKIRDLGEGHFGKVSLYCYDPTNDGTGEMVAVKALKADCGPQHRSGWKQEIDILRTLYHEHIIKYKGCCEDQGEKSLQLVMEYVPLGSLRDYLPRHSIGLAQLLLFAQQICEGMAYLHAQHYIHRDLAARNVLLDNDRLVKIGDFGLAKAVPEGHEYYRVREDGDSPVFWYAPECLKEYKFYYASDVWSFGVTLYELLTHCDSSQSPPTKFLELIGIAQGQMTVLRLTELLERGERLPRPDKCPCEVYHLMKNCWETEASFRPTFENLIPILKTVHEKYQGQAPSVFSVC

Key:
JAK1 = JAK1 (Homo sapiens, UniProt P23458); assay: JAK assay (KINASE-GLO luminescent kinase assay), JAK1; conditions: read-out: JAK IC50 (nM) JAK1; 10 nM JAK enzyme, 800 nM Abl peptide, room temperature 75 min
JAK3 = JAK3 (Homo sapiens, UniProt P52333); assay: JAK assay (KINASE-GLO luminescent kinase assay), JAK3; conditions: read-out: JAK IC50 (nM) JAK3; 10 nM JAK enzyme, 800 nM Abl peptide, room temperature 75 min
JAK2 = JAK2 (Homo sapiens, UniProt O60674); assay: JAK assay (KINASE-GLO luminescent kinase assay), JAK2; conditions: read-out: JAK IC50 (nM) JAK2; 10 nM JAK enzyme, 800 nM Abl peptide, room temperature 75 min
TYK2 = TYK2 (Homo sapiens, UniProt P29597); assay: JAK assay (KINASE-GLO luminescent kinase assay), TYK2; format: biochemical; conditions: read-out: JAK IC50 (nM) TYK2; 10 nM JAK enzyme, 800 nM Abl peptide, room temperature 75 min

IC50 (JAK1) [nM] | IC50 (JAK3) [nM] | IC50 (JAK2) [nM] | IC50 (TYK2) [nM] | Compound
< 100 | < 100 | < 10 | < 100 | CN1CCN(c2ccc(Nc3ncc(Cl)c(-c4cnn(CC5(CF)COC5)c4)n3)cn2)CC1
< 1000 | < 1000 | < 100 | < 1000 | Cc1csc(Nc2ncc(Cl)c(-c3cnn(CC4(CF)COC4)c3)n2)n1
< 10 | < 10 | < 10 | < 10 | Cc1cnc(Nc2ccc3c(c2)CNC3=O)nc1-c1cnn(CC2(Cl)CC2)c1
< 1000 | < 100 | < 10 | < 1000 | Cc1cnc(Nc2cccc(C3(O)COC3)c2)nc1-c1cnn(CC2(CF)CC2)c1
< 1000 | < 1000 | < 100 | < 100000 | CN(C)Cc1ccnc(Nc2ncc(Cl)c(-c3cnn(CC4(CF)CC4)c3)n2)c1
< 100 | < 10 | < 10 | < 10 | Cc1cnc(Nc2ccc(N3CCOCC3)cc2)nc1-c1cnn(CC2(CF)CC2)c1
< 100 | < 10 | < 10 | < 100 | N#CC1(Cn2cc(-c3nc(Nc4cccc(C(N)=O)c4)ncc3Cl)cn2)CC1
< 100000 | ≥ 50000 | < 100000 | < 100000 | Cc1cnc(NCc2cccc(Cl)c2)nc1-c1cnn(CCC#N)c1
